What was measured:
osteoprotegerin (OPG) = assay: RT-PCR of osteogenic differentiation marker OPG; assay type: cell-based, mouse; conditions: MC3T3-E1, three days
bone sialoprotein (BSP) = assay: RT-PCR of osteogenic differentiation marker BSP; assay type: cell-based, mouse; conditions: MC3T3-E1, three days
[1] = test system: alkaline phosphatase (ALP); conditions: MC3T3-E1, three days, RT-PCR

BMP2: positive control: 100 ng/ml BMP2 (Cell signaling) [reference compound]
increased: expression of osteoprotegerin (OPG) (osteoprotegerin (OPG)) | expression of bone sialoprotein (BSP) (bone sialoprotein (BSP)) | expression of alkaline phosphatase (ALP) [1]
